From US8959984B2, “Proteome-wide quantification of small molecule binding to cellular target proteins” (priority 2007, dated 2015)

The chains behind the UniProt entries cited, without tags or fusion partners. Where a name states a change or a piece, a line headed by the entry shows the natural chain unless it says otherwise.
UniProt P32320: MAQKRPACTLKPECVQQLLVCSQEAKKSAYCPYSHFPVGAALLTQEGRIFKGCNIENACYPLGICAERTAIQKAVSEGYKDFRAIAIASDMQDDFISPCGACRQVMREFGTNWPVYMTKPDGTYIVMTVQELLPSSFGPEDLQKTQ
UniProt Q96AB3: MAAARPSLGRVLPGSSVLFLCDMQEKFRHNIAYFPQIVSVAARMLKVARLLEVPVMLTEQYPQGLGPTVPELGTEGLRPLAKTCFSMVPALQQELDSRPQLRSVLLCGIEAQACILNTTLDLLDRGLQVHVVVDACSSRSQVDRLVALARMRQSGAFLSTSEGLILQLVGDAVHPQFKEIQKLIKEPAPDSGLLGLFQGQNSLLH
UniProt Q9H6S1, whole entry: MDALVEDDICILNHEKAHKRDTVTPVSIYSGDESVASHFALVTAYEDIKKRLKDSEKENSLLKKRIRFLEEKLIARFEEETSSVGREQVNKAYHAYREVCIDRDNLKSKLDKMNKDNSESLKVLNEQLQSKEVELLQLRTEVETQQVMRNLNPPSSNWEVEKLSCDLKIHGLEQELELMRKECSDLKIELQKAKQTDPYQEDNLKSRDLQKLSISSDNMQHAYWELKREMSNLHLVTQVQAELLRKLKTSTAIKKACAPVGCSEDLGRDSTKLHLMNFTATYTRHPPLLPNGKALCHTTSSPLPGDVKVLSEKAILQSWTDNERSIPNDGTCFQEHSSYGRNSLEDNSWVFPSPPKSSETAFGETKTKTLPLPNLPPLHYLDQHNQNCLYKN

Legend:
Assay in all cases: Ki determination for immobilized VI16742: two consecutive incubations, control beads, ligand concentration and incubation time controls (Tables 7, 8)
Type in all cases: binding
[1] = target: cellular target proteins in HeLa cell lysate (Homo sapiens, UniProt P32320); details: Ki (VI16742), CDA IPI00027983
[2] = target: T1, cellular target proteins in HeLa cell lysate (Homo sapiens, UniProt P51956); details: Ki (VI16742), NEK3 IPI00465101
T1 sequence (P51956 1-506): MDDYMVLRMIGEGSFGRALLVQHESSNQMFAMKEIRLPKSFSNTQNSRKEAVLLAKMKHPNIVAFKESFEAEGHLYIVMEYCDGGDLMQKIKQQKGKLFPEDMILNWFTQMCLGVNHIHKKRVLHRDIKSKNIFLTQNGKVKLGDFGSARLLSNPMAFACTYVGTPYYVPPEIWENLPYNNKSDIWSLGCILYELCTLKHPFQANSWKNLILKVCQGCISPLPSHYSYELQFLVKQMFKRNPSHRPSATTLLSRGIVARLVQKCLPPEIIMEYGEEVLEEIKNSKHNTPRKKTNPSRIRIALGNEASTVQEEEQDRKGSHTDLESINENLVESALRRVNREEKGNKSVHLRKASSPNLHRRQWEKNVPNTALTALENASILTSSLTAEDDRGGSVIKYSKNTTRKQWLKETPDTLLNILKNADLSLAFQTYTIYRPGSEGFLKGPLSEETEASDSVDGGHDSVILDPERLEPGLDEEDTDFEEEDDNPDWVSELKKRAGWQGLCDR

[3] = target: cellular target proteins in HeLa cell lysate (Homo sapiens, UniProt Q96AB3); details: Ki (VI16742), ISOC2 IPI00003031
[4] = target: T2, cellular target proteins in HeLa cell lysate (Homo sapiens, UniProt Q9BZL6); details: Ki (VI16742), PKD2 (PRKD2) IPI00009334
T2 sequence (Q9BZL6 1-878): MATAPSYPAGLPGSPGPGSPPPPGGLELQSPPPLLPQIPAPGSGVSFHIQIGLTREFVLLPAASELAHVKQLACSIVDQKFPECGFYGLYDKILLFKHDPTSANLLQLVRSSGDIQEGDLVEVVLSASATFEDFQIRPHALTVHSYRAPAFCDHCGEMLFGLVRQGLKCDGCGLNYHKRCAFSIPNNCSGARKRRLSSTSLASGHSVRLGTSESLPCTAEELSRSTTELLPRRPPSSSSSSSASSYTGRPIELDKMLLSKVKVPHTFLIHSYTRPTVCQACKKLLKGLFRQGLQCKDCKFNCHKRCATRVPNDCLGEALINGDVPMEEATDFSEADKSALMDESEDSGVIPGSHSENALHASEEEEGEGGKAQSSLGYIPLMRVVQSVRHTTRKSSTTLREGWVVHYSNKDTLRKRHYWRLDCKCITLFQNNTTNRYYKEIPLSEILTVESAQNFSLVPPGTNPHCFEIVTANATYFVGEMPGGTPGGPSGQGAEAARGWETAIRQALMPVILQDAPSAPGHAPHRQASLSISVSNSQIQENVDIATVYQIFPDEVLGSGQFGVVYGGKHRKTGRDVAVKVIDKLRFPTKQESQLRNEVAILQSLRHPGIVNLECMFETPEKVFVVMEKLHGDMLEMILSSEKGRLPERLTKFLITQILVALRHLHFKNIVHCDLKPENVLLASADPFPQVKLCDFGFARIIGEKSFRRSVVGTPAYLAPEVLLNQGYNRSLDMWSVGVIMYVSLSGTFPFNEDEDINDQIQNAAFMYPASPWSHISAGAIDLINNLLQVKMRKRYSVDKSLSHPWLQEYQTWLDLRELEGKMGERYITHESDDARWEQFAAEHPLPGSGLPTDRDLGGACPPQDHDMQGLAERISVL

[5] = target: cellular target proteins in HeLa cell lysate (Homo sapiens, UniProt Q9H6S1); details: Ki (VI16742), AZI2 IPI00008255

Compound: CC(C)n1c(=O)ccc2cnc(Nc3ccc(OCCN)cc3)nc21 [V16742]
- Ki [1]: 12.7 µM
- Ki [2]: 14.3 µM
- Ki [3]: 75.1 µM
- Ki [4]: 3.56 µM
- Ki [5]: 8.57 µM
